Our source for the IC50 values is US20260384451A1, “6-ARYL IMIDAZO[2,1-B]THI/OpXAZOLE-2-CARBOXILIC ACID DERIVATIVE AND PHARMACEUTICAL COMPOSITION FOR TREATING ALZHEIMER'S DISEASE CONTAINING SAME AS ACTIVE INGREDIENT” (published 2026).

The chains behind the UniProt entries cited, without tags or fusion partners.
UniProt P53779, whole entry: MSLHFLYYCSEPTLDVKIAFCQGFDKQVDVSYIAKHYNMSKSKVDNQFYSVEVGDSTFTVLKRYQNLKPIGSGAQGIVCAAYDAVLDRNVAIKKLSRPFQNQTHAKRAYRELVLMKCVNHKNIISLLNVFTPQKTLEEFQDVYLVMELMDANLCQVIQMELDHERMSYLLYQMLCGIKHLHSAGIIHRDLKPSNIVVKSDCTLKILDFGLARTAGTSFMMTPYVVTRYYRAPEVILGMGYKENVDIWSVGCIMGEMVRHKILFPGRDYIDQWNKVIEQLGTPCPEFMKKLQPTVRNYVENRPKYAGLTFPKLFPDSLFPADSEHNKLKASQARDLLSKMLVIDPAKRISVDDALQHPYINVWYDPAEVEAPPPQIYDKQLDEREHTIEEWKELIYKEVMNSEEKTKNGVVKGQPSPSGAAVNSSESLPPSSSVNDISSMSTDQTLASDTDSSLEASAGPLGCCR

One experiment addresses JNK3 (Homo sapiens, UniProt P53779). The experiment can be described thus: In vitro JNK3 inhibitory activity assay. Conditions: read-out: JNK3 inhibitory activity (IC50); Table 1, imidazo[2,1-b]thiazole derivatives, class symbols.
Regarding `CNC(=O)c1cn2c(-c3ccnc(N[C@H]4CCCN(C(=O)N(C)C)C4)n3)c(-c3ccc4ccccc4c3)nc2s1`, the IC50 was 30 to 1000 nM. Still for that read-out and setting: the result for `CNC(=O)c1cn2c(-c3ccnc(N[C@H]4CCCN(C(=O)C5CC5)C4)n3)c(-c3ccc(Cl)c(Cl)c3)nc2s1` reads 30 to 1000 nM; that for `NC(=O)c1cn2c(-c3ccnc(N[C@@H]4CCCN(C(=O)C5CC5)C4)n3)c(-c3ccc(F)c(C(F)(F)F)c3)nc2s1`, 1 to 30 nM; that for `CCOC(=O)c1cn2c(-c3ccnc(N[C@@H]4CCCN(C(=O)N(C)C)C4)n3)c(-c3ccc(F)c(C(F)(F)F)c3)nc2s1`, 1 to 30 nM. In the case of `CNC(=O)c1cn2c(-c3ccnc(N[C@H]4CCCN(C(=O)C5CC5)C4)n3)c(-c3ccc4ccccc4c3)nc2s1`, the IC50 fell in the range of 30 to 1000 nM. For the compound `CN(C)C(=O)N1CCC[C@@H](Nc2nccc(-c3c(-c4ccc5c(c4)OCCO5)nc4sc(C(N)=O)cn34)n2)C1`, the IC50 was below 1 nM. Same read-out and setting: with `CCOC(=O)c1cn2c(-c3ccnc(N[C@H]4CCCN(C(=O)C5CC5)C4)n3)c(-c3ccc4ccccc4c3)nc2s1` the figure was 30 to 1000 nM; with `NC(=O)c1cn2c(-c3ccnc(N[C@H]4CCCN(C(=O)C5CC5)C4)n3)c(-c3ccc(Cl)c(Cl)c3)nc2s1`, 30 to 1000 nM; with `CCOC(=O)c1cn2c(-c3ccnc(N[C@H]4CCCN(C(=O)C5CC5)C4)n3)c(-c3ccc(Cl)c(Cl)c3)nc2s1`, 30 to 1000 nM.

`CN(C)C(=O)N1CCC[C@H](Nc2nccc(-c3c(-c4ccc(Cl)c(Cl)c4)nc4sc(C(N)=O)cn34)n2)C1`: the IC50 was 30 to 1000 nM.

On to `CNC(=O)c1cn2c(-c3ccnc(N[C@H]4CCCN(C(=O)N(C)C)C4)n3)c(-c3ccc4c(c3)OCCO4)nc2s1`, for which the IC50 was 30 to 1000 nM. Still for that read-out and setting: with `CCOC(=O)c1cn2c(-c3ccnc(N[C@H]4CCCN(C(=O)N(C)C)C4)n3)c(-c3ccc4ccccc4c3)nc2s1` the figure was 30 to 1000 nM; with `CNC(=O)c1cn2c(-c3ccnc(N[C@@H]4CCCN(C(=O)C5CC5)C4)n3)c(-c3ccc(F)c(C(F)(F)F)c3)nc2s1`, 1 to 30 nM. The same measure, in the same setting: the result for `CN(C)C(=O)N1CCC[C@H](Nc2nccc(-c3c(-c4ccc5c(c4)OCCO5)nc4sc(C(N)=O)cn34)n2)C1` reads 30 to 1000 nM.

As for `NC(=O)c1cn2c(-c3ccnc(N[C@H]4CCCN(C(=O)C5CC5)C4)n3)c(-c3ccc4c(c3)OCCO4)nc2s1`, the half-inhibitory concentration (IC50) was in the range of 30 to 1000 nM.

Still in this experiment, the particulars now being: read-out: JNK3 inhibitory activity (IC50); Table 2, imidazo[2,1-b]thiazole derivatives, class symbols.
Consider `CCOC(=O)c1cn2c(-c3ccnc(NC4CCOCC4)n3)c(-c3ccc4c(c3)OCCO4)nc2s1`, for which the half-maximal inhibitory concentration (IC50) lay in the range of 1 to 30 nM. In the case of `NC(=O)c1cn2c(-c3ccnc(NC4CCOCC4)n3)c(-c3ccc(F)c(Cl)c3)nc2s1`, the IC50 is below 1 nM. Regarding `CCOC(=O)c1cn2c(-c3ccnc(NCC4CC4)n3)c(-c3ccc4ccccc4c3)nc2s1`, the 50% inhibitory concentration (IC50) is 30 to 1000 nM. Same read-out and setting: the result for `NC(=O)c1cn2c(-c3ccnc(NCC4CC4)n3)c(-c3ccc4ccccc4c3)nc2s1` reads above 10000 nM; that for `NC(=O)c1cn2c(-c3ccnc(NC4CCCCC4)n3)c(-c3ccc(Cl)c(Cl)c3)nc2s1`, 1 to 30 nM; that for `CCOC(=O)c1cn2c(-c3ccnc(NC4CCCCC4)n3)c(-c3ccc(F)c(Cl)c3)nc2s1`, 1 to 30 nM.

As to `CCOC(=O)c1cn2c(-c3ccnc(NC4CCCCC4)n3)c(-c3ccc(Cl)c(Cl)c3)nc2s1`, the IC50 lay within 30 to 1000 nM. Still for that read-out and setting: the result for `CNC(=O)c1cn2c(-c3ccnc(NC4CCCCC4)n3)c(-c3ccc4c(c3)OCCO4)nc2s1` reads 30 to 1000 nM; that for `CCOC(=O)c1cn2c(-c3ccnc(NCCOC)n3)c(-c3ccc4ccccc4c3)nc2s1`, 30 to 1000 nM.

Consider `CNC(=O)c1cn2c(-c3ccnc(NC4CCCCC4)n3)c(-c3ccc4ccccc4c3)nc2s1`, for which the IC50 was 1 to 30 nM. Take `NC(=O)c1cn2c(-c3ccnc(NC4CCCCC4)n3)c(-c3ccc4ccccc4c3)nc2s1`: the IC50 was 30 to 1000 nM.

Regarding `NC(=O)c1cn2c(-c3ccnc(NC4CCOCC4)n3)c(-c3ccc4ccccc4c3)nc2s1`, the IC50 was in the range of 30 to 1000 nM. With `NC(=O)c1cn2c(-c3ccnc(NC4CCOCC4)n3)c(-c3ccc(Cl)c(Cl)c3)nc2s1`, the IC50 was 1 to 30 nM. `CNC(=O)c1cn2c(-c3ccnc(NC4CCOCC4)n3)c(-c3ccc4c(c3)OCCO4)nc2s1`: the half-maximal inhibitory concentration (IC50) lay in the range of 1 to 30 nM.

The same experiment, now with this note: read-out: JNK3 inhibitory activity (IC50); Table 3, imidazo[2,1-b]oxazole derivatives, class symbols.
In the case of `NC(=O)c1cn2c(-c3ccnc(N[C@H]4CCCN(C(=O)C5CC5)C4)n3)c(-c3ccc4c(c3)OCCO4)nc2o1`, the IC50 is below 1 nM. In the case of `CCOC(=O)c1cn2c(-c3ccnc(N[C@H]4CCCN(C(=O)C5CC5)C4)n3)c(-c3ccc4ccccc4c3)nc2o1`, the 50% inhibitory concentration (IC50) was 1 to 30 nM. Still for that read-out and setting: with `CCOC(=O)c1cn2c(-c3ccnc(N[C@H]4CCCN(C(=O)C5CC5)C4)n3)c(-c3ccc4c(c3)OCCO4)nc2o1` the figure was below 1 nM; with `NC(=O)c1cn2c(-c3ccnc(N[C@@H]4CCCN(C(=O)C5CC5)C4)n3)c(-c3ccc(F)c(Cl)c3)nc2o1`, below 1 nM. `CN(C)C(=O)N1CCC[C@@H](Nc2nccc(-c3c(-c4ccc5ccccc5c4)nc4oc(C(N)=O)cn34)n2)C1`: the IC50 was below 1 nM. `CNC(=O)c1cn2c(-c3ccnc(N[C@H]4CCCN(C(=O)N(C)C)C4)n3)c(-c3ccc4ccccc4c3)nc2o1`: the half-inhibitory concentration (IC50) is 1 to 30 nM.

Regarding `CNC(=O)c1cn2c(-c3ccnc(N[C@@H]4CCCN(C(=O)C5CC5)C4)n3)c(-c3ccc4c(c3)OCCO4)nc2o1`, the IC50 is 1 to 30 nM. Still for that read-out and setting: the result for `NC(=O)c1cn2c(-c3ccnc(N[C@@H]4CCCN(C(=O)C5CC5)C4)n3)c(-c3ccc4c(c3)OCCO4)nc2o1` reads below 1 nM.

Staying with this experiment, now noted: read-out: JNK3 inhibitory activity (IC50); Table 5, imidazo[2,1-b]oxazole derivatives, class symbols.
Regarding `CNC(=O)c1cn2c(-c3ccnc(NC4CCOCC4)n3)c(-c3ccc4c(c3)OCCO4)nc2o1`, the concentration for half-maximal inhibition (IC50) was in the range of 1 to 30 nM. Turning to `CCOC(=O)c1cn2c(-c3ccnc(NC4CCOCC4)n3)c(-c3ccc4c(c3)OCCO4)nc2o1`, the IC50 is 1 to 30 nM. On the same count and under the same terms, with `CNC(=O)c1cn2c(-c3ccnc(NC4CCOCC4)n3)c(-c3ccc(Cl)c(Cl)c3)nc2o1` the figure was below 1 nM; with `NC(=O)c1cn2c(-c3ccnc(NC4CCOCC4)n3)c(-c3ccc4c(c3)OCCO4)nc2o1`, 1 to 30 nM.

The experiment is the same for the next values; noted with them: read-out: JNK3 inhibitory activity (IC50); Table 6, imidazo[2,1-b]thiazole-based covalent inhibitors, class symbols.
As for `C=CC(=O)Nc1cn2c(-c3ccnc(NC4CCCCC4)n3)c(-c3ccc(Cl)c(Cl)c3)nc2s1`, the IC50 is below 1 nM. As to `CN(C)/C=C/C(=O)c1cn2c(-c3ccnc(NC4CCOCC4)n3)c(-c3ccc(Cl)c(Cl)c3)nc2s1`, the IC50 was below 1 nM.

Consider `C=CC(=O)Nc1cn2c(-c3ccnc(NC4CCOCC4)n3)c(-c3ccc(F)c(Cl)c3)nc2s1`, for which the half-inhibitory concentration (IC50) was in the range of 1 to 30 nM.

For `CN(C)/C=C/C(=O)c1cn2c(-c3ccnc(NC4CCCCC4)n3)c(-c3ccc(Cl)c(Cl)c3)nc2s1`, the IC50 is 30 to 1000 nM. The same measure, in the same setting: the result for `C#CCNC(=O)c1cn2c(-c3ccnc(NC4CCCCC4)n3)c(-c3ccc(Cl)c(Cl)c3)nc2s1` reads 1 to 30 nM; that for `C=CC(=O)Nc1cn2c(-c3ccnc(NC4CCCCC4)n3)c(-c3ccc4ccccc4c3)nc2s1`, below 1 nM; that for `C#CCNC(=O)c1cn2c(-c3ccnc(NC4CCCCC4)n3)c(-c3ccc(F)c(Cl)c3)nc2s1`, 1 to 30 nM.

`C=CC(=O)Nc1cn2c(-c3ccnc(NC4CCOCC4)n3)c(-c3ccc4ccccc4c3)nc2s1`: the IC50 is below 1 nM.

The same experiment, now with this note: read-out: JNK3 inhibitory activity (IC50); Table 7, imidazo[2,1-b]oxazole-based covalent inhibitors, class symbols.
On to `C=CC(=O)Nc1cn2c(-c3ccnc(NC4CCCCC4)n3)c(-c3ccc(Cl)c(Cl)c3)nc2o1`, for which the IC50 was below 1 nM. As for `C=CC(=O)c1cn2c(-c3ccnc(NC4CCOCC4)n3)c(-c3ccc4ccccc4c3)nc2o1`, the IC50 lay in the range of 1 to 30 nM. Still for that read-out and setting: the result for `C#CCNC(=O)c1cn2c(-c3ccnc(NC4CCOCC4)n3)c(-c3ccc4ccccc4c3)nc2o1` reads 1 to 30 nM; that for `CN(C)/C=C/C(=O)c1cn2c(-c3ccnc(NC4CCOCC4)n3)c(-c3ccc(Cl)c(Cl)c3)nc2o1`, 1 to 30 nM.
